Source: patent US20240075005A1, “Treatment of Overactive Bladder with Oxybutynin Applied By Means of a Vaginal Ring” (LIGALLI BV, priority 2021, published 2024)

Test: Pharmacokinetic trial: single 3 mg intravaginal dose of oxybutynin HCl delivered by the MedRing vaginal ring, plasma LC/MS/MS
Assay type: in vivo, human (female subjects)
Excerpt: This trial investigated the feasibility of pulsed intra-vaginal delivery of oxybutynin and explored systemic exposure after application via the MedRing device.
The trial included female subjects of childbearing potential (women of childbearing potential, WOCBP) aged between 18 and 45 years (inclusive) and female postmenopausal subjects aged between 50 and 69 years (inclusive); Postmenopausal status is defined as age≥50 years and having >12 months amenorrhoea in the absence of hormonal therapy that may cause amenorrhoea.
The MedRing was manufactured by Demcon Holding, The Netherlands, and filled with 100 mg/mL oxybutynin HCl. Oxybutynin HCl was dissolved in 50% propylene glycol/50% water for injection. The MedRing was pre-filled with 1-2 mL of oxybutynin 100 mg/mL, from which a controlled dose of up to 30 μL (=3 mg) was administered at least 15 minutes after intra-vaginal insertion of the MedRing by trained medical personnel.
Subjects began a 4-hour pre-dose fasting period before arriving to the clinic until 2 hours post-dose. Upon arrival, the subjects underwent pre-dose measurements to re-confirm eligibility for the study and to perform baseline measurements. The MedRing was inserted intra-vaginally by medically trained personnel. […]
Plasma oxybutynin concentrations were measured by a validated LC/MS/MS method by Ardena Bioanalytical Laboratories, Assen, The Netherlands. […]

parent:metabolite ratio (oxybutynin:N-desethyloxybutynin) on the AUCinf (female, human, in vivo, 3 mg): 1:1.3
Compound: CCN(CC)CC#CCOC(=O)C(O)(c1ccccc1)C1CCCCC1 (centres unmarked) [oxybutynin]
plasma concentrations relative to known safety window (intravaginal via MedRing): well within the known safety window
